## Measured affinities in a library of Ab-91 heavy chain variants

The measurements come from Engelhart et al. 2022 (doi:10.1038/s41597-022-01779-4) through the FLAb antibody collection.

Antigen: PDVDLGDISGINAS, a 14-residue peptide of the SARS-CoV-2 spike HR2 region.

Parent scFv Ab-91: VL joined to VH by a 15-residue (Gly4Ser)3 linker. Changes lie in the heavy chain CDRs alone.
VL: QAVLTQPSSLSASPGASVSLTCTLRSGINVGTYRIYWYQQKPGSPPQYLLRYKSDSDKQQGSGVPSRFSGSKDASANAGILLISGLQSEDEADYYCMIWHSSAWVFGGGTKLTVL
VH: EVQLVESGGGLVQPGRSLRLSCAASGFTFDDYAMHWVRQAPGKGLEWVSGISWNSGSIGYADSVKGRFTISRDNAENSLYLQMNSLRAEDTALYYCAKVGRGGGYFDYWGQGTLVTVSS

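The parent was found by panning a naive human phage display library on the peptide. AAYL51 was designed without a model: most single CDR substitutions and a random sample of double and triple ones. The scFvs were displayed on barcoded MATa yeast, the peptide on MATalpha yeast. Binding brings cells together so that they mate, and sequencing counts the barcode pairs among the diploids. Read counts were normalised to the haploid input and turned into Kd by a linear fit to BCL2-family pairs of known affinity, for each replicate. Mating was done three times.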

The parent's heavy chain CDRs are GFTFDDYAMH, GISWNSGSIGYADSVK, VGRGGGYFDY; each variant's own CDRs replace them letter for letter.
Values are apparent Kd, the geometric mean of the replicates that gave a signal; lower means stronger binding.
An entry "no signal" has no value in the source: the pair was not observed among the diploids in any replicate. This suggests poor binding but is not conclusive.
Entries are sorted by rising average, undetected variants last.

CDR-H1 | CDR-H2 | CDR-H3 | Kd | detected | empty controls
GFTFDAYAMH | GISWNSGSIGYADSVK | VLRGGGYFIY | 1.8 nM | 3/3 | 1/9
GFTFDDYAMH | GISWDSGSIGYSDSVK | VGRGGGFFDY | 2.9 nM | 3/3 | 4/9
GFTFDDYAMH | GISWNSGSIGYADSVK | VGRGGGHFQI | 13 nM | 3/3 | 4/9
GFTFDDYAMH | GISWNSGERGYADSVK | VGRGGGYFDY | 15 nM | 3/3 | 4/9
GFTFDDYAMC | GISWNSLSIGYADSVN | VGRGGGYFDY | 19 nM | 3/3 | 1/9
GFHFDDYAMH | GISWNSGSIGYAWSVK | VGRGGGYFDY | 170 nM | 3/3 | 0/9
GFTADDYAMH | GISWNSGPIGYADSVK | VGRGGGYFDY | 970 nM | 2/3 | 2/9
GFYFDDYAMH | GISWNSGSIGYWDSVK | VGRGGGYFDY | 1.7 µM | 1/3 | 2/9
GFTFDDYAMH | GISWNSGDIGYADSVK | VNRGGGQFDY | 1.8 µM | 1/3 | 0/9
KFTFDDYAMH | GISWNSGSIGYADSVE | VGRGGGYFDY | 1.9 µM | 3/3 | 2/9
GFTFWDYAMH | GISWTSGSVGYADSVK | VGRGGGYFDY | 2.1 µM | 3/3 | 4/9
GFTFDFTAMH | GISWHSGSIGYADSVK | VGRGGGYFDY | 2.6 µM | 3/3 | 7/9
GFTFDDYALH | GISWNSGSIGYADSVK | VGRGGGPFDF | 3.7 µM | 1/3 | 1/9
GFTFNDYAMH | GISWNSGCIGYADSAK | VGRGGGYFDY | 4.6 µM | 3/3 | 1/9
GFTFDDYAMH | GISWNSGSIGYAQSVK | VGRGGGYFDF | 4.6 µM | 2/3 | 2/9
GFTFDDYAMH | GIPWNSGSIGYADSVK | FGEGGGYFDY | 5.0 µM | 1/3 | 0/9
GFTFDDYAMH | GISWNSGSWGYADSPK | VGRGEGYFDY | 5.6 µM | 1/3 | 1/9
GFTFDVYAMH | GISPNSGSIDYADSVK | VGRGGGYFDY | 5.8 µM | 1/3 | 0/9
GFTFDDYAMH | GISWNSGSIGYADSQK | VGRGGGYFDQ | 11 µM | 2/3 | 4/9
GKTFDDYAMH | GISWNGGSIGYADSFK | VGRGGGYFDY | 12 µM | 2/3 | 2/9
GNTFDDHAMH | GISWNCGSIGYADSVK | VGRGGGYFDY | 13 µM | 1/3 | 2/9
GFTFDDYAMH | GISWNSVSIGYADSVK | VGWGWGYFDY | 15 µM | 1/3 | 2/9
GFTFDDYAMH | GISWNSGSIWYADHVK | VGRGGGYFQY | 15 µM | 2/3 | 1/9
GFTFDDYAMH | GISTNVGSIGYADSVK | VGRGGGYFDY | 15 µM | 2/3 | 1/9
GFSFDDYAMH | GISWNSGSIGQANSVK | VGRGGGYFDY | 20 µM | 3/3 | 0/9
GFPFDDYAMH | GISWNSGSIGAADSVK | VGRGGGYFDY | 21 µM | 2/3 | 1/9
GFTFMDYAMH | CISWNSGSIGYADSVK | VGRGPGYFDY | 28 µM | 1/3 | 3/9
GFTFDDYEMH | GISWNDGSIGYADSVQ | VGRGGGYFDY | 28 µM | 2/3 | 3/9
GFTFDDYAMH | GISWNSGSICCADSVK | VGRGGGYFDY | 29 µM | 1/3 | 2/9
GFTFDDYAMH | GISWNAGSIGYASSVK | VGRGGGVFDY | 36 µM | 1/3 | 4/9
GFTFDDYAMM | GISWASGSIGYADSVM | VGRGGGYFDY | 39 µM | 1/3 | 3/9
GFTFDDYAMH | ISSWNSGSIGYADSVK | VGRTGGYFDY | 39 µM | 2/3 | 2/9
GFTVDDYAMH | GISWNSGSIGYADSVK | VGRGGKYFDV | 43 µM | 2/3 | 0/9
GFTFDDYAMH | GISWNSGSIGYQDSSK | VGRGGGYFDY | 43 µM | 3/3 | 9/9
GFTFDDYAMH | PISWNMGSIGYADSVK | VGRGGGYFDY | 44 µM | 1/3 | 0/9
GFTFDDYAMH | GDSWNSGRRGYADSVK | VGRGGGYFDY | 49 µM | 2/3 | 2/9
GFTFDDYAMH | NISWNSGGIGYADSQK | VGRGGGYFDY | 50 µM | 1/3 | 6/9
GFTFDDDAMH | GISWNEGSIGYADSVK | VGRGTGYFDY | 54 µM | 2/3 | 2/9
ARTFDDYAMH | GISWNSGSIMYADSVK | VGRGGGYFDY | 56 µM | 2/3 | 2/9
GFTFRDYAMH | GISWVSGSIGYADSVK | VGRGCGYFDY | 58 µM | 2/3 | 6/9

Second part, the sequence after the result:

Kd | detected | empty controls | CDR-H1 | CDR-H2 | CDR-H3
60 µM | 3/3 | 8/9 | GFTFDNYAMC | GISWNSGSIGYADSVK | VGRGGGYFDY
68 µM | 3/3 | 7/9 | GFTFDDYAMH | GISWNSGSIGYADSVK | VGRWGGYFFN
74 µM | 2/3 | 6/9 | GFTFDDYAMH | GISWNSGCCGYAKSVK | VGRGGGYFDY
84 µM | 2/3 | 1/9 | GFTFDDYAMH | GISHNSGSIGYCDSVK | VGRKGGYFDY
100 µM | 1/3 | 3/9 | GFTFDDYAMH | TISWNIGSIGYADSVK | VGRGGGYLDY
110 µM | 1/3 | 2/9 | GFTFDDYAMH | GIKWTSGSIGYADSVK | VGRGGFYFDY
110 µM | 1/3 | 2/9 | GFTFDDYAMH | GISKNSGSIGYADSVK | VGRWGGYFDY
200 µM | 1/3 | 1/9 | GFRFDDYAMH | GWSWLSGSIGYADSVK | VGRGGGYFDY
260 µM | 1/3 | 2/9 | GFTFDDGAMQ | GISWNSGSIGIADSVK | VGRGGGYFDY
260 µM | 3/3 | 5/9 | KFTFDDYQMH | GISWNSGSPGYADSVK | VGRGGGYFDY
280 µM | 1/3 | 4/9 | GFTVDDYAVH | GISWNSGSMGYADSVK | VGRGGGYFDY
300 µM | 2/3 | 6/9 | GFTFDDYAMH | GISWNSCSIGRADSVK | VGTGGGYFDY
310 µM | 1/3 | 1/9 | PFTFDDYAMH | IISWNSGSAGYADSVK | VGRGGGYFDY
390 µM | 1/3 | 4/9 | GGTFDDYAMH | GISWNSGSIGYWNSVK | VGRGGGYFDY
470 µM | 3/3 | 8/9 | GFTFPDYARH | GISWNSGSIGYADSGK | VGRGGGYFDY
no signal | 0/3 | 1/9 | GLTFDDYAMH | GISWNSASIGYADSQK | VGRGGGYFDY
no signal | 0/3 | 0/9 | GFTFDDYAMH | GISWNSGSIGYRDNVK | VGRGGHYFDY
no signal | 0/3 | 0/9 | GFTFWDKAMH | GISWNSGSIGYADSVK | VGRGGGYFPY
no signal | 0/3 | 0/9 | GFTFWDYAMH | GISWNSGSIGYADSWK | DGRGGGYFDY
no signal | 0/3 | 4/9 | GFHFDDYAKH | GISWNSGSIGYADSVK | VGYGGGYFDY
no signal | 0/3 | 0/9 | GFTFDDYAMN | GISWCSGSIGYADSVK | VFRGGGYFDY
no signal | 0/3 | 0/9 | GFTFDDYAMH | WISWTSGSIGYADSVK | VGRGGGYFDY
no signal | 0/3 | 0/9 | GSTFDDYAMS | GISWNSGSIGYADSVK | VGRAGGYFDY
no signal | 0/3 | 1/9 | FFTFDDYAMH | GINWNSGSIGYADSVK | VGRGGHYFDY
no signal | 0/3 | 2/9 | AFTFDYYAMH | GISWNSGSIGYADSVK | VGRGGGYFQY
no signal | 0/3 | 2/9 | GFTFDDYAMH | GISWGSGSIPYADSVK | VGRGVGYFDY
no signal | 0/3 | 0/9 | GFTFDDYAMH | GISWSSGSIGYADSVK | VGRHGLYFDY
no signal | 0/3 | 1/9 | GFTDDDPAMH | GISWNQGSIGYADSVK | VGRGGGYFDY
no signal | 0/3 | 0/9 | GFTFDDYAMH | GISWNSGSIGYADSVK | VGRGFGKFDY
no signal | 0/3 | 2/9 | GFIFDDYAMH | GISWNSTSIGYADSVK | VGRGGGYFPY
no signal | 0/3 | 0/9 | GFTFDTYMMH | GISWNSGSIGYADLVK | VGRGGGYFDY
no signal | 0/3 | 0/9 | GFTFDDYAMI | GISINSGSIAYADSVK | VGRGGGYFDY
no signal | 0/3 | 0/9 | GFTFDDYAMH | GISWNFNSIGYADSVK | VGRGGGYFFY
no signal | 0/3 | 0/9 | GFTFDDYAMH | GISTNSGSIGYAFSVK | WGRGGGYFDY
no signal | 0/3 | 1/9 | GFTFDDYARH | GISWNSGSIGIADSVK | VGRGGGQFDY
no signal | 0/3 | 2/9 | GFTFDDYAMH | GISWNSGSIGYADSDK | VGRGGGYDDY
no signal | 0/3 | 4/9 | GFTFDDYAMH | GISWNSGSIMYADSVK | FGRGGGYFAY
no signal | 0/3 | 0/9 | GFTFDCYAMH | GISWNSGSIGYADSVA | VGRGRGYFDY
no signal | 0/3 | 3/9 | GFTFDDYAMH | GIEWNSGSIGYADSVK | MGRGHGYFDY
no signal | 0/3 | 1/9 | GFTFDDYAMH | EISWNSGSIGYADSVK | VGRDGGYFYY

In this assay the parent's reference entry averaged 72 nM; its copy inside this library read 7.5 nM.
As a blank, each scFv also met three strains without target: over library AAYL51, 21% of these pairings were detected, typically at 34 µM and seldom below 1.8 µM. The control count says in how many pairings with the empty strains this scFv gave a signal.